Assay results published in ChEMBL document CHEMBL3400047, “Synthesis and binding properties of new long-chain 4-substituted piperazine derivatives as 5-HT₁A and 5-HT₇ receptor ligands” (Bioorg Med Chem Lett, 2015).
pKi: −log10 of the molar value.

Protein sequences, listed by entry. Tags and fused reporters are not part of them.
UniProt P34969, whole entry: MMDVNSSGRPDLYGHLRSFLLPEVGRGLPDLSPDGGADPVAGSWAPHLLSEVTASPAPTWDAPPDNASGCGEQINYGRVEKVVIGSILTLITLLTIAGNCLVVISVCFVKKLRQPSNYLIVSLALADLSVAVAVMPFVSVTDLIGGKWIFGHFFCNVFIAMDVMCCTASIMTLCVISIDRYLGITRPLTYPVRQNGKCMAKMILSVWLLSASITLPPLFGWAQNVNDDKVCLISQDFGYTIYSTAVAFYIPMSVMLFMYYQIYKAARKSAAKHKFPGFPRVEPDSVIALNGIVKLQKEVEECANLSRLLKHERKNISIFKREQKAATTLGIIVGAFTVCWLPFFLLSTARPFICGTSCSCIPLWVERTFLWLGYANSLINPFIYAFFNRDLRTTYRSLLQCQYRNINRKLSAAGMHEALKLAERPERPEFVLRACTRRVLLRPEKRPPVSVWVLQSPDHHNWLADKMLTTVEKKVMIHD

Biological target: 5-hydroxytryptamine receptor 7 (Homo sapiens, UniProt P34969)
Assay: Displacement of [3H]-8-OH-DPAT from human 5-HT7 receptor expressed in CHOK1 cells after 30 mins by liquid scintillation counting analysis
Assay type: cell-based, CHO-K1

SMILES: CCCN(CCC)C1CCc2cccc(O)c2C1 (stereo unspecified) [8-OH-DPAT]
- pKi: 6.41
